Experiments:
AML blasts [1] = experiment: SCNP phospho-flow signaling nodes in AML PBMC (Example 2, Study No. 1); assay type: cell-based, human; settings: for Mean Value of CRs: CR patients; for Mean Value of CRs / Mean Value of NRs: Study No. 1; for Mean Value of NRs: NR patients
Procedure: Frozen cells are thawed in a 37° C. water bath and gently resuspended in the vial and transferred to the 15 mL conical tube. The 15 mL tube is centrifuged at 930 RPM (200×g) for 8 minutes at room temperature. The supernatant is aspirated and the pellet is gently resuspended in 1 mL media A. The cell suspension is filtered through a 70 um cell strainer into a new 15 mL tube. The cell strainer is rinsed with 1 mL media A and another 12 ml of media A into the 15 mL tube. The cells are mixed into an even suspension. A 20 μL aliquot is immediately removed into a 96-well plate containing 180 μL PBS+4% FBS+CD45 Alexa 700+PI to determine cell count and viability post spin. After the determination, the 15 mL tubes are centrifuged at 930 RPM (200×g) for 8 minutes at room temperature. The supernatant is aspirated and the cell pellet is gently resuspended in 4 mL PBS+4 μL Amine Aqua and incubated for 15 min in a 37° C. incubator. 10 mL RPMI+1% FBS is added to the cell suspension and the tube is inverted to mix the cells. The 15 mL tubes are centrifuged at 930 RPM (200×g) for 8 minutes at room temperature. The cells are resuspended in Media A at the desired cell concentration (1.25×10^6/mL). For samples with low numbers of cells (<18.5×10^6), the cells are resuspended in up to 15 mL media. For samples with high numbers of cells (>18.5×10^6), the volume is raised to 10 mL with media A and the desired volume is transferred to a new 15 mL tube, and the cell concentration is adjusted to 1.25×10^6 cells/ml. 1.6 mL of the above cell suspension (concentration at 1.25×10^6 cells/ml) is transferred into wells of a multi-well plate. From this plate, 80 ul is dispensed into each well of a subsequent plate. The plates are covered with a lid (Nunc) and placed in a 37° C. incubator for 2 hours to rest.
A concentration for each stimulant that is five folds more (5×) than the final concentration is prepared using Media A as diluent. 5× stimuli are arrayed into wells of a standard 96 well v-bottom plate that correspond to the wells on the plate with cells to be stimulated.
Adding the stimulant: The cell plate(s) are taken out of the incubator and placed in a 37° C. water bath next to the pipette apparatus. The cell plate is taken from the water bath and gently swirled to resuspend any settled cells. With pipettor, the stimulant is dispensed into the cell plate and vortexed at “7” for 5 seconds. The deep well plate is put back into the water bath.
Adding Fixative: 200 μl of the fixative solution (final concentration at 1.6%) is dispensed into wells and then mixed on the titer plate shaker on high for 5 seconds. The plate is covered with foil sealer and incubated in a 37° C. water bath for 10 minutes. The plate is spun for 6 minutes at 2000 rpm at room temperature. The cells are aspirated using a 96 well plate aspirator (VP Scientific). The plate is vortexed to resuspend cell pellets in the residual volume. The pellet is ensured to be dispersed before the Methanol step (see cell permeabilization) or clumping will occur.
Cell Permeabilization: Permeability agent, for example methanol, is added slowly and while the plate is vortexing. To do this, the cell plate is placed on titer plate shaker and made sure it is secure. The plate is set to shake using the highest setting. A pipetter is used to add 0.6 mls of 100% methanol to the plate wells. The plate(s) are put on ice until this step has been completed for all plates. Plates are covered with a foil seal using the plate roller to achieve a tight fit. At this stage the plates can be stored at −80° C.
Cells are thawed if frozen. Cells are pelleted at 2000 rpm 5 minutes. Supernatant is aspirated with vacuum aspirator. Plate is vortexed on a “plate vortex” for 5-10 seconds. Cells are washed with 1 mL FACS buffer. Repeat the spin, aspirate and vortex steps as above. 50 μL of FACS/stain buffer with the desired, previously optimized, antibody cocktail is added to two rows of cells at a time and agitate the plate. […]

AML blasts [2] = experiment: SCNP signaling and apoptosis nodes in AML BMMC (Example 4, Study No. 2); assay type: cell-based, human
[3] = Fold metric, Study No. 1, CRp patient included in NR group
[4] = Total Phospho metric, Study No. 1, CRp patient included in NR group
[5] = read-out p-CREB, metric TotalPhospho
[6] = read-out p-Stat3, metric TotalPhospho
[7] = Fold metric, all patients, Study No. 2
[8] = Study No.2, patients with De Novo AML

## CCCCCCCCCCCCCC(=O)O[C@@H]1[C@@H](C)[C@@]2(O)[C@@H](C=C(CO)C[C@]3(O)C(=O)C(C)=C[C@@H]23)[C@@H]2C(C)(C)[C@]12OC(C)=O [PMA, reference compound]
AML blasts [1]; [3]
  Mean Value of CRs, p-Erk: 1.46

B1: IL-3 (protein, UniProt P08700 20-152, looked up)
Interleukin-3: APMTQTTPLKTSWVNCSNMIDEIITHLKQPPLPLLDFNNLNGEDQDILMENNLRRPNLEAFNRAVKSLQNASAIESILKNLLPCLPLATAAPTRHPIHIKDGDWNEFRRKLTFYLKTLENAQAQQTTLSLAIF
AML blasts [1]; [3]
  Mean Value of CRs, p-Stat3: 0.15
  Mean Value of NRs, p-Stat3: −0.04
AML blasts [1]; [4]
  Mean Value of CRs, p-CREB: 1.51
  Mean Value of NRs, p-CREB: 2.58
AML blasts [1]; [5]
  Mean Value of CRs: 1.64
  Mean Value of NRs: 2.57
AML blasts [1]; read-out p-Stat1, metric Fold
  Mean Value of CRs: 0.05
  Mean Value of NRs: −0.01
AML blasts [1]; read-out p-Stat3, metric Fold
  Mean Value of CRs: 0.13
  Mean Value of NRs: −0.05
AML blasts [1]; [6]
  Mean Value of CRs: 1.05
  Mean Value of NRs: 1.29
AML blasts [2]; [7]
  Mean Value of CRs, p-Stat5: 1.99
  Mean Value of NRs, p-Stat5: 0.44
AML blasts [2]; [8]
  Mean Value of CRs, p-Stat1 TotalPhospho: 1.03
  Mean Value of CRs, p-Stat3 TotalPhospho: 1.46
  Mean Value of CRs, p-Stat5 Fold: 1.87
  Mean Value of NRs, p-Stat1 TotalPhospho: 1.71
  Mean Value of NRs, p-Stat3 TotalPhospho: 2.40
  Mean Value of NRs, p-Stat5 Fold: 0.39

— patent US20160223554A1, “METHODS FOR DIAGNOSIS, PROGNOSIS AND METHODS OF TREATMENT” (priority 2011, published 2016)
